In one assay the target is T1, TRIM24 (PHD‐BRD) (Homo sapiens, UniProt O15164).
T1 sequence (O15164 826-1004 limits assumed): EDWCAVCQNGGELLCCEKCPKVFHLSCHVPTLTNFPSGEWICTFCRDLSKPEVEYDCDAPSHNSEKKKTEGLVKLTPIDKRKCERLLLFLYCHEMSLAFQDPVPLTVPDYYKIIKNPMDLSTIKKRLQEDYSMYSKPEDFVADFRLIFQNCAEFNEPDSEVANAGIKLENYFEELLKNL
Description: BROMOscan assay, TRIM24. It is filed as binding.

Assay [1] deals with T2, His6-TRIM24 (PHD-BRD) (Homo sapiens, UniProt O15164).
T2 sequence (O15164 825-1007): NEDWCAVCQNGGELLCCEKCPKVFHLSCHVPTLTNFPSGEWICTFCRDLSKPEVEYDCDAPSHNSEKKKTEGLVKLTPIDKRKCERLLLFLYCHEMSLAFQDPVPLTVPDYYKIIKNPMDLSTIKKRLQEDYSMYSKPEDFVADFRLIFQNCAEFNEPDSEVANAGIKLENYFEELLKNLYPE
To be noted: AlphaScreen® IC50, inhibition of TRIM24-H3K9Me3 (B1) binding by PDCs and controls; mean of triplicate ± SEM. On the technique in general: In Alpha technology, singlet oxygen from a donor bead excites a nearby acceptor bead.

For assay [2], the target named is T2, His6-TRIM24 (PHD-BRD). Description: AlphaScreen competition assay, displacement of biotinylated H3(1–27)K9Me3K18Ac (B3). Also on record: N825–E1007; made in house; host or cells: Escherichia coli BL21-Gold (DE3), plasmid pNIC28-Bsa4. Particulars: inhibition of TRIM24-H3K9Me3K18Ac (B3) binding, mean of triplicate ± SEM.
For assay [3], the target named is T2, His6-TRIM24 (PHD-BRD). In words: AlphaScreen competition assay, displacement of biotinylated H3(1–27)K18Ac (B2). Also noted: N825–E1007; made in house; host or cells: Escherichia coli BL21-Gold (DE3), plasmid pNIC28-Bsa4. Particulars: inhibition of TRIM24-H3K18Ac (B2) binding; mean of triplicate ± SEM.
[4] abbreviates: BROMOscan TRIM24 PHD-BRD Kd, mean of duplicate data ± 95% confidence interval.
[5] abbreviates: individual duplicate curves, read-out: BROMOscan TRIM24 Kd, single dose-response curve.

“And” between values parts separate entries of the source, which are not always exact repeats. Equal entries are not always repeated. Where two headings read alike, the source gives them in different places.

These results are taken from PMC12731528, “High‐Affinity Peptide‐Drug Conjugate Ligands for the TRIM24 PHD and Bromodomain” (Chemistry (Weinheim an Der Bergstrasse, Germany), 2025).

As for `CCCOc1cccc(Oc2cc3c(cc2NS(=O)(=O)c2cccc(C(=O)NCCOCCOCCOCCNC(=O)[C@H](CCCCN4Cc5ccccc5C4)NC(=O)[C@H](CCCNC(=N)N)NC(=O)[C@H](C)NC(=O)[C@@H](NC(=O)[C@H](CCC(N)=O)NC(=O)[C@H](CCCCN)NC(=O)[C@@H](NC(=O)[C@H](CCCNC(=N)N)NC(=O)[C@H](C)N)[C@@H](C)O)[C@@H](C)O)c2)n(C)c(=O)n3C)c1` [PDC5], the Kd at TRIM24 (PHD‐BRD) (setting [4]) was 0.22 ± 0.05 nM; on TRIM24 (PHD‐BRD) (setting [5]), 0.24 nM and 0.19 nM. Moreover, the IC50 on His6-TRIM24 (PHD-BRD) [1] turned out to be 14.6 ± 0.3 nM; on His6-TRIM24 (PHD-BRD) [2] it was 28.8 ± 0.8 nM.
Consider `CCCOc1cccc(Oc2cc3c(cc2NS(=O)(=O)c2cccc(C(=O)NCCOCCOCCNC(=O)[C@H](CCCCN4Cc5ccccc5C4)NC(=O)[C@H](CCCNC(=N)N)NC(=O)[C@H](C)NC(=O)[C@@H](NC(=O)[C@H](CCC(N)=O)NC(=O)[C@H](CCCCN)NC(=O)[C@@H](NC(=O)[C@H](CCCNC(=N)N)NC(=O)[C@H](C)N)[C@@H](C)O)[C@@H](C)O)c2)n(C)c(=O)n3C)c1` [PDC4], for which the Kd on TRIM24 (PHD‐BRD) (setting [4]) is 0.27 ± 0.19 nM; at TRIM24 (PHD‐BRD) (setting [5]), 0.17 nM and 0.36 nM. Further, the IC50 was 4.7 ± 0.5 nM at His6-TRIM24 (PHD-BRD) [1] and 4.8 ± 0.3 nM at His6-TRIM24 (PHD-BRD) [3].

In general, Kd refers to the concentration at which binding is half-saturated. A word on the IC50: it is the concentration that gives 50% inhibition.
